{"sequences": {"note": "Chains of the proteins cited; added tags and fusions are not shown.", "UniProt Q51990, entry or part of it": "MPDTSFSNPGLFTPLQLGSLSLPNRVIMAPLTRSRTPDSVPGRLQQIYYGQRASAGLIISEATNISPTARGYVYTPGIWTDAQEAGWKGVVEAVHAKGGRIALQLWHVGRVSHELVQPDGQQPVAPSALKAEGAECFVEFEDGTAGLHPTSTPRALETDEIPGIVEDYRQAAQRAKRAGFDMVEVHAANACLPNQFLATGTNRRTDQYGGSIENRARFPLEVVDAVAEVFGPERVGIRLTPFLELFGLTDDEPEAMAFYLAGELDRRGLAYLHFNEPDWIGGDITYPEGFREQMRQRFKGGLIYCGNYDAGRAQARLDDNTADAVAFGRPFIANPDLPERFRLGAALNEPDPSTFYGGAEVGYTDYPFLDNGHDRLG"}, "source": "patent US5571685A", "about": "(priority 1992, dated 1996)", "target": "morphinone reductase (Pseudomonas putida, UniProt Q51990)", "settings": "reverse reaction", "data": [{"compound": "CN1CC[C@]23c4c5ccc(O)c4O[C@H]2C(=O)CC[C@H]3[C@H]1C5", "note": "[hydromorphone]", "values": [{"measurement": "Enzyme activity in the reverse direction", "value": "No activity in the reverse direction"}]}]}
